# Ab-14 light chain CDR variants: yeast mating affinities

All variants were tested on one target, the spike HR2 peptide PDVDLGDISGINAS (SARS-CoV-2).

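The parent was found by panning a naive human phage display library on the peptide. Designed CDR sequences, proposed from the first random library and measured here. Group labels follow the data file (Ctrl: baseline library sampled from a position-specific scoring matrix, with some repeated check sequences; En: ensemble of fine-tuned language models; GP: Gaussian process model; HC: hill climbing; Gen: genetic algorithm; Gibbs: Gibbs sampling; a sequence that several methods proposed may carry one label only). In AlphaSeq, yeast of one mating type display the scFv and yeast of the other type display the target. Mating (16 h, 30 °C) was followed by selection of diploids and sequencing of their barcodes. The ratio of observed to expected reads was calibrated, replicate by replicate, on BCL2-family standards whose Kd was known from biolayer interferometry. Mating was done six times.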

Parent scFv Ab-14: VH joined to VL by the linker GGGGSGGGGSGGGGS. Changes lie in the light chain CDRs alone.
VH: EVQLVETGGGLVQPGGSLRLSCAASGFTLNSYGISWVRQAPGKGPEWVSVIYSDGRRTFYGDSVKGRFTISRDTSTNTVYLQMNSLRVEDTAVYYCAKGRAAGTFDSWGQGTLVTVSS
VL: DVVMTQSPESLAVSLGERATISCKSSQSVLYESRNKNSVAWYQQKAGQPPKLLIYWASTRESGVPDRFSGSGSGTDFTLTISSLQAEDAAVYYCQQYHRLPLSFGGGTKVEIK

Variants are written as CDR1, CDR2 and CDR3 of the light chain (limits as in the source). Parent: KSSQSVLYESRNKNSVA, WASTRES, QQYHRLPLS. The Kd shown is the geometric mean over detected replicates; a lower Kd is a better binder. A pair that was not seen in any replicate is written "nd"; this usually means weak binding, but a binder can also be missed. Nonspecific signal, from three strains lacking the peptide, appeared in 4% of pairings of all light chain designs, centred on 430 nM (5% of these signals below 38 nM); values are not corrected for it. The authors averaged sequences with at least three values out of six and counted those with two or fewer as poor binders. The parent sequence was in this pool as ten entries: three were never detected, three once, and four in most replicates, with averages from 2.2 nM to 240 nM. A sequence measured in both rounds can read differently, since the two assays cover different ranges.

CDR-L1	CDR-L2	CDR-L3	group	Kd	detected
KSSGSVLYEDRMVNSVA	NASQRLM	QQYHRLPLS	GP_Gibbs	4.5 nM	6 of 6
KVSGSHLYESRNKNSVA	NASTRES	QQYHRLPLS	GP_Gen	920 pM	6 of 6
KLYLSTMLESHNKNSIA	DLSTRGN	QQYHRLPLS	En_HC	13 nM	6 of 6
KFSQSELYESRNKNSVA	NASQRMS	QQYHRLPLS	GP_Gen	7.9 nM	2 of 6
KVQQSVLYESRNKNSVA	NASTRCS	QQYHRLPLS	GP_Gen	650 pM	6 of 6
IISQSALGEYHNKNSVA	QTSERGS	QQYDRLPLS	En_HC	2.2 nM	6 of 6
KSNQSVCYESRNKNWIA	WASTREA	QQHHRAPLS	Ctrl	200 nM	1 of 6
KLSCSQEYWSRNTNSVA	GASTRES	QQYHRLPLS	GP_Gibbs	620 pM	6 of 6
KVSQSVGYESRNKNSVA	NASTRES	QQYHRLPLS	GP_Gen	1.1 nM	6 of 6
MMSQVTGLGQRHRNNVA	QTSEREP	QQYDRLPLI	En_Gen	3.2 nM	6 of 6
KISQNMGETQRNKNSVA	EVSTVPP	QQYWRLPLS	En_HC	55 nM	6 of 6
KLSQSVLYESRVKNSVA	EAVQRES	QQYHRLPLS	GP_Gibbs	27 nM	1 of 6
KVSPSMLYEQRNKNSVA	SASTREN	QSYHRLPLS	GP_Gibbs	1.3 nM	6 of 6
SISVFQNMSTQGNNSIA	GAEQKVH	QQYDRLPLY	En_Gibbs	220 nM	4 of 6
KVSPSWLYEDRNCNSVA	QASCRES	QQYHRLPLS	GP_Gibbs	5.1 nM	6 of 6
KSSQSVDNESRWKNSVA	DASTRES	QQYHRLPLS	GP_HC	2.3 nM	6 of 6
KSSQSVLSESRNTNSVA	WASTRES	QQYHELPES	Ctrl	nd	0 of 6
KSSQSFLYESRNKNSVA	GASTRES	QAYHRLPLS	GP_HC	49 nM	5 of 6
KLSESWLYESRNKNSVA	HASTRES	QQYHRLPLS	GP_Gen	640 pM	6 of 6
KLQQFYRMETRNKNSVA	DNSTRES	QDYDRLPLS	En_HC	nd	0 of 6
LIKGMVEGQYYWQNNIA	NSEERDR	QQYNHLPLS	En_Gibbs	15 nM	6 of 6
KSSQSVLYESRNHNSVA	QASTRSS	QQYHRLPLS	Ctrl	7.9 nM	6 of 6
KLQQQNLYESRNKNNVA	EASQREQ	QQYHRLPLS	GP_Gibbs	630 pM	6 of 6
MISQLMNMGQFAINSVA	QATIRND	QQYDRLPLI	En_Gen	160 nM	5 of 6
ALGQKGFQQSGMRDSIA	HSDIRLA	QQYYHLPLA	En_Gibbs	2.2 nM	6 of 6
TISQMTSLFSQTINNVA	EVSTREA	QQYDRLPLV	En_Gen	2.8 nM	6 of 6
MISQLYNMGSFAINSVA	QASTRNQ	QQYDRLPLM	En_Gen	69 nM	4 of 6
KVSQSFLYESRNKNSVA	EASTRCS	QQYHRLPLS	GP_Gen	2.1 nM	6 of 6

The remaining entries, values ahead:

Kd	detected	CDR-L1	CDR-L2	CDR-L3	group
520 pM	6 of 6	KLSQSMLYESRAKNSVA	NASQRES	QQYHRLPLS	GP_Gen
940 pM	6 of 6	KIEQSVLYEDRNKNSVA	NASQRES	QAYHRLPLS	GP_Gibbs
nd	0 of 6	VSSLSVLNESRNKNSVA	WASTRES	QQYHHLPLS	Ctrl
nd	0 of 6	KSSQSVLYESRNLNSVA	SASTRES	QQAHRLPLS	Ctrl
8.1 nM	5 of 6	SLFESEREELSVEQNIA	DGTEHMR	QQYFRLPLL	En_Gibbs
2.1 nM	4 of 6	KLVQFMNRGTHHTSNIA	DAQNRID	QQYARLPLQ	En_Gen
53 nM	6 of 6	KISSLTLYESVEKNNIA	EMSTRPS	QSYHRLPLS	En_HC
1.2 nM	6 of 6	KLYQSQLYESRNKNSVA	NASYRES	QQYHRLPLS	GP_Gen
2.4 nM	6 of 6	KQQQSFLYESRNSNSVA	NASQREE	QQYHRLPLM	GP_Gibbs
6.0 nM	6 of 6	MISGSVMSESRLHNSVA	QTTTRES	QQYDRLPLS	En_HC
960 pM	6 of 6	KLSQSVLMGDRNKNSVA	QASTREM	QQYHRLPLS	GP_Gibbs
13 nM	6 of 6	KSSQSQLYESRNKNSVA	HASTRED	QQYHRLPLS	GP_HC
880 pM	6 of 6	KLQQSVCYESRNKNSVA	NASTRMS	QQYHRLPLS	GP_Gen
1.9 nM	6 of 6	KLSQSDLYESRNKNSVA	GASTREV	QQYHRLPLS	GP_Gen
4.7 nM	6 of 6	KLGYPSYGEVNGKHNIA	EMDQLTF	QQYSHLPLS	En_Gibbs
730 pM	6 of 6	KLSQSFLYESRNKNAVA	GASTRES	QQYHRLTLS	GP_HC
68 nM	3 of 6	QLYAVNDLTSKESNNVA	EQTTREN	QQYHRLPLS	En_HC
1.9 nM	6 of 6	KLSQSDEYESRQFNSVA	NASTRMM	QQYHRLPLS	GP_Gibbs
nd	0 of 6	KDSQSVLYESRNKNGVA	WASTRES	QQYHRLPLS	Ctrl
1.9 nM	6 of 6	KSSISYLYEWRNKNSVA	EASTREQ	QQYHRLPLS	GP_HC
890 pM	6 of 6	HLSTSVDLESVHKNSIA	DLMTRES	QQYHRLPLS	En_HC
2.5 nM	6 of 6	SLIPFENQIMKGLNNIA	NTQVRAS	QQYMRLPFV	En_Gibbs
4.8 nM	6 of 6	KLSQADWYGSRNKNSVA	EASLRES	QQYHRLPLS	GP_Gibbs
570 pM	6 of 6	KISQSDLYESRNKNSVA	EASTRES	QQYHRLPLS	GP_Gen
12 nM	6 of 6	HMMMYTDMQQNIQCGVA	DATTRNT	QQYQRLPLS	En_Gibbs
13 nM	6 of 6	IISQVDDYLMRNTNSIA	DQTTRGS	QQYDRLPLS	En_HC
8.3 nM	6 of 6	KITTSLYSWGIDKGAVA	EENITVR	QQYFRLPFS	En_Gibbs
4.4 nM	6 of 6	KLSQSVGYESRNKNSVA	NASTRES	QQYHRLPLS	GP_Gen

Top 3 of the variants detected in all replicates, tightest first:

| CDR-L1 | CDR-L2 | CDR-L3 | group | Kd | detected |
|---|---|---|---|---|---|
| KLSQSMLYESRAKNSVA | NASQRES | QQYHRLPLS | GP_Gen | 520 pM | 6 of 6 |
| KISQSDLYESRNKNSVA | EASTRES | QQYHRLPLS | GP_Gen | 570 pM | 6 of 6 |
| KLSCSQEYWSRNTNSVA | GASTRES | QQYHRLPLS | GP_Gibbs | 620 pM | 6 of 6 |

Values reported by Li et al. 2023, doi:10.1038/s41467-023-39022-2 (FLAb copy).